Values of other authors, collected in patent publication US11939397B2, “ENTPD2 antibodies, combination therapies, and methods of using the antibodies and combination therapies” (Novartis AG, priority 2018, dated 2024).

By UniProt entry, the sequences of proteins in these tests, tags left out.
UniProt P14902, whole entry, species assumed: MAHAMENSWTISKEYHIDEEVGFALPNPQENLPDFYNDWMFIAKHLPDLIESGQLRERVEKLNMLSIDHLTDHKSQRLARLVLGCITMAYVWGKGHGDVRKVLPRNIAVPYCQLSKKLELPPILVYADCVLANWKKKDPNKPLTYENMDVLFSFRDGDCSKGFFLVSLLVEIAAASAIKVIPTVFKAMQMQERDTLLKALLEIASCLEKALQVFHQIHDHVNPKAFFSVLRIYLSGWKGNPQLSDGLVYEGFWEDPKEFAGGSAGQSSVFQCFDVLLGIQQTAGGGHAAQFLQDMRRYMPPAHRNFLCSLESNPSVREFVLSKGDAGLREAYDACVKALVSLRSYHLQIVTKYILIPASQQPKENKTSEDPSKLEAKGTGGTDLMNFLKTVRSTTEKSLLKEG

Target: indoleamine 2,3-dioxygenase (IDO1) (Homo sapiens, UniProt P14902)
Conditions: cited from earlier work

For “(4E)-4-[(3-chloro-4-fluoroanilino)-nitrosomethylidene]-1,2,5-oxadiazol-3-amine [Epacadostat]”, the “selectivity over other related enzymes such as IDO2 or TDO” value is listed as “highly selective”.
